AlphaSeq binding of Ab-91 heavy chain variants to a spike HR2 peptide

Source: Engelhart et al. 2022 (doi:10.1038/s41597-022-01779-4), MIT Lincoln Laboratory and A-Alpha Bio; data file from the FLAb repository.

The target is the same throughout: PDVDLGDISGINAS, from the HR2 region of SARS-CoV-2 spike.

Ab-91 is the parent antibody, in scFv form: VL, then a 15-residue (Gly4Ser)3 linker, then VH. The light chain is unchanged in all variants.
VL: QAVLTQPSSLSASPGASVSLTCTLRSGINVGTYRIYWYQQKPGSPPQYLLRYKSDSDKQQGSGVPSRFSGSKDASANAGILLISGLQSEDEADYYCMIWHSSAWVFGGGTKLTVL
VH: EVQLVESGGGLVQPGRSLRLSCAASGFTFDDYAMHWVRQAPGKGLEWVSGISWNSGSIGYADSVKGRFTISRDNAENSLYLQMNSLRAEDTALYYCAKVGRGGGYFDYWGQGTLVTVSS

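The library (AAYL51) carries one to three amino acid substitutions per variant, with no insertions or deletions. AlphaSeq pools MATa yeast showing the antibodies with MATalpha yeast showing the peptide. The frequency of each diploid, read from paired DNA barcodes, reflects how well the two displayed proteins bind. The ratio of observed to expected reads was calibrated, replicate by replicate, on BCL2-family standards whose Kd was known from biolayer interferometry. There are three technical replicates.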

The parent's heavy chain CDRs are GFTFDDYAMH, GISWNSGSIGYADSVK, VGRGGGYFDY; each variant's own CDRs replace them letter for letter. All variants listed here change Y108 of the VH, counted from its first residue. Each Kd is an estimate from the mating assay, the geometric mean of the replicates in which the pair was seen; lower is stronger. Where no diploid with the target was found in any replicate, the entry reads "no signal": below detection, most likely a poor binder, though not proof of it. For reference, the parent read 72 nM as the reference entry and 7.5 nM as a member of this library. Nonspecific signal, from three strains lacking the peptide, appeared in 21% of pairings of library AAYL51, centred on 34 µM (5% of these signals below 1.8 µM); values are not corrected for it. The control count says in how many pairings with the empty strains this scFv gave a signal.

* LFTFDDYAMH, GISWNSGSIGYDDSVK, VGRGGGYFDW -> 16 µM (2 of 3 replicates; controls 6 of 9)
* GFTFDDVAMH, GIIWNSGSIGYADSVK, VGRGGGYFDD -> 440 µM (2 of 3 replicates; controls 5 of 9)
* GFTFDDYAMH, GISWNSGSIGYADEVK, VGRGGGYTDN -> 180 µM (1 of 3 replicates; controls 0 of 9)
* GFTFDDYAMH, GISWNSGSICYMDSVK, VGRGGGYFDK -> no signal (0 of 3 replicates; controls 0 of 9)
* GFTFDDYAMH, GISWNSGSSGYADSVK, VGRGGGYGDH -> 1.2 µM (3 of 3 replicates; controls 1 of 9)
* GFMFDDYAMH, GISWNSGSINYADSVK, VGRGGGYFDC -> 420 µM (1 of 3 replicates; controls 0 of 9)
* GFTFDDYAMH, GISWNSGSIGYADSVK, VRRGGGYFHK -> 33 µM (3 of 3 replicates; controls 7 of 9)
* GFTFDDYAMH, GIPWNSGSIGYADSVK, VGRGGGTFDL -> 210 µM (2 of 3 replicates; controls 1 of 9)
* GFTFDDYAMH, GNSWNSGSIGYADSVK, RGRGGGYFDL -> no signal (0 of 3 replicates; controls 1 of 9)
* GFTFDDYAKH, GISWNSGSIGYADSVK, VGRGGYYFDP -> no signal (0 of 3 replicates; controls 1 of 9)
* GFTFDDYAMH, GISWNSGSIGYADSPK, VGRGGGYYDW -> no signal (0 of 3 replicates; controls 0 of 9)
* GFTFDDYAMH, GISWNSMSIGYADSVK, VGRGGGYFIH -> 220 µM (3 of 3 replicates; controls 7 of 9)
* GFTFWDYAMH, GISWNSGSIGYADSVK, VGRGGGYFDR -> 60 µM (2 of 3 replicates; controls 5 of 9)
* GFTFDDYAMH, AISWNSGSIGYADSVK, VGVGGGYFDN -> 13 µM (1 of 3 replicates; controls 3 of 9)
* GFTFDDYAMH, GIVWNSVSIGYADSVK, VGRGGGYFDT -> 240 µM (3 of 3 replicates; controls 8 of 9)
* GFTFDDTAMH, GIYWNSGSIGYADSVK, VGRGGGYFDG -> 98 µM (2 of 3 replicates; controls 8 of 9)
* GCTFDDYAMH, GIWWNSGSIGYADSVK, VGRGGGYFDA -> no signal (0 of 3 replicates; controls 0 of 9)
* GFTFDDYAMH, GISNNSGSIEYADSVK, VGRGGGYFDT -> 51 µM (2 of 3 replicates; controls 3 of 9)
* MFTFDDYAMH, GISWNSGSITYADSVK, VGRGGGYFDG -> 38 µM (2 of 3 replicates; controls 5 of 9)
* GFTFDDYAMH, GVSWKSGSIGYADSVK, VGRGGGYFDA -> 12 µM (1 of 3 replicates; controls 1 of 9)
* GFTFDDYAMH, GISWNSGSSGYADSVK, VGRGGGYDDT -> 41 µM (2 of 3 replicates; controls 3 of 9)
* GFTFDDYAHH, GISWNSGSIGCADSVK, VGRGGGYFDP -> 350 µM (1 of 3 replicates; controls 0 of 9)
* GFTFDDYAMH, GISWNSGSIGYPDSVK, VGRLGGYFDQ -> 28 µM (3 of 3 replicates; controls 5 of 9)
* GFTFDNYAMH, GIWWNSGSIGYADSVK, VGRGGGYFDR -> 110 µM (2 of 3 replicates; controls 3 of 9)
* GFTFDDYAMH, GISWNSGSIGYADSVK, VGRGIGPFDT -> 15 µM (1 of 3 replicates; controls 2 of 9)
* GFTFDDYAPH, GISWNSGSIGYADSVK, VGRGGGYFDW -> no signal (0 of 3 replicates; controls 3 of 9)
* GFTFYDYAMH, GISWNSGSIGYADPVK, VGRGGGYFDM -> 27 µM (2 of 3 replicates; controls 3 of 9)
* GFTFDDGAMH, GISWNSGSIGYADSVK, VGRGGGYFDS -> 1.0 µM (1 of 3 replicates; controls 3 of 9)
* GFEFDRYAMH, GISWNSGSIGYADSVK, VGRGGGYFDS -> 1.9 nM (3 of 3 replicates; controls 0 of 9)
* GFTFDYYAMH, GISWNSGSIGYADSVK, VGRGGGYNDS -> 44 µM (2 of 3 replicates; controls 3 of 9)
* GFTFDDYAMH, GISWNSGSIGYADSVK, VGRGGGYFDS -> 1.7 nM (3 of 3 replicates; controls 2 of 9)
* YFTFDDYAMH, GISWNSGSIGYADSVK, VGYGGGYFDG -> 96 µM (2 of 3 replicates; controls 3 of 9)
* GFTFDDYAMH, MISWNSGSIGYADIVK, VGRGGGYFDT -> no signal (0 of 3 replicates; controls 1 of 9)
* GFKFDDYAMH, GISWNSGSIGYADSVV, VGRGGGYFDT -> 69 nM (2 of 3 replicates; controls 0 of 9)
* GFTFDDIAMH, GISWKSGSIGYADSVK, VGRGGGYFDF -> no signal (0 of 3 replicates; controls 1 of 9)
* SFTFDDYAMH, GISANSGSIGYADSVK, VGRGGGYFDC -> no signal (0 of 3 replicates; controls 4 of 9)
* GFTFDDYAMH, GISWNSGSIGYPDSVK, VGRGGGYFFV -> no signal (0 of 3 replicates; controls 2 of 9)
* MFTFDDYAMH, GISWNSGSIGYADSVK, VGRGGGYFDP -> 26 µM (2 of 3 replicates; controls 6 of 9)
* GFTFDQYAMH, GQSWNSGSIGYADSVK, VGRGGGYFDI -> 25 µM (2 of 3 replicates; controls 4 of 9)
* GFTFDDYAMH, GISWNSGSIGYADSQK, VGRGGIYFDT -> 10 µM (1 of 3 replicates; controls 1 of 9)
* GFTFDDYAMH, GISWNSGSIGYADSQK, VGRGSGYFDV -> no signal (0 of 3 replicates; controls 1 of 9)
* GFTFDDMAMH, GISWNSGSKGYADSVK, VGRGGGYFDC -> 97 nM (3 of 3 replicates; controls 0 of 9)
* GFTFDDYAMH, GISWNSGSIGYADSVK, VWRGGGYFDL -> 22 µM (2 of 3 replicates; controls 6 of 9)
* GFTFDDYAMH, WISWNSGSRGYADSVK, VGRGGGYFDQ -> 6.5 µM (1 of 3 replicates; controls 0 of 9)
* GFTFDDYAMH, GISWNSGYIGYADSVK, VDRGGGYFDN -> no signal (0 of 3 replicates; controls 0 of 9)
* GFTFDDYAPH, GISWNSGSISYADSVK, VGRGGGYFDG -> 65 µM (3 of 3 replicates; controls 1 of 9)
* NFTFDDYAMH, GISWNSGSIGSADSVK, VGRGGGYFDV -> 1.9 µM (3 of 3 replicates; controls 5 of 9)